{"sequences": {"note": "Protein sequences, listed by entry. Tags and fused reporters are not part of them. Residues count along the entry.", "UniProt G3GRU9, 1-506": "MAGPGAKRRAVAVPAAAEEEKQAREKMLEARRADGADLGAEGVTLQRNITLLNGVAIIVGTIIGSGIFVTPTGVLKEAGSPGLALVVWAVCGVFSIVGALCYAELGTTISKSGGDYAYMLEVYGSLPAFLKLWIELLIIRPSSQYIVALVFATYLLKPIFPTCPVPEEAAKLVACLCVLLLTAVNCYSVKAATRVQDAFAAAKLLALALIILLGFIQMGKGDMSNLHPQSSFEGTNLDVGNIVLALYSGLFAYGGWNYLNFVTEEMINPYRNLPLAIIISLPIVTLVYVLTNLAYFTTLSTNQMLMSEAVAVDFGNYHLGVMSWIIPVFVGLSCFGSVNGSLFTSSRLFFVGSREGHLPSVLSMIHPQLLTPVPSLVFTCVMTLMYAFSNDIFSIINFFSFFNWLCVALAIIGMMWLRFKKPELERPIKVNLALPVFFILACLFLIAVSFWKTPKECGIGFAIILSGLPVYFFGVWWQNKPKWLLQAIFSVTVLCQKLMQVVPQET", "UniProt A0A9J7CH39, 1-533 partner": "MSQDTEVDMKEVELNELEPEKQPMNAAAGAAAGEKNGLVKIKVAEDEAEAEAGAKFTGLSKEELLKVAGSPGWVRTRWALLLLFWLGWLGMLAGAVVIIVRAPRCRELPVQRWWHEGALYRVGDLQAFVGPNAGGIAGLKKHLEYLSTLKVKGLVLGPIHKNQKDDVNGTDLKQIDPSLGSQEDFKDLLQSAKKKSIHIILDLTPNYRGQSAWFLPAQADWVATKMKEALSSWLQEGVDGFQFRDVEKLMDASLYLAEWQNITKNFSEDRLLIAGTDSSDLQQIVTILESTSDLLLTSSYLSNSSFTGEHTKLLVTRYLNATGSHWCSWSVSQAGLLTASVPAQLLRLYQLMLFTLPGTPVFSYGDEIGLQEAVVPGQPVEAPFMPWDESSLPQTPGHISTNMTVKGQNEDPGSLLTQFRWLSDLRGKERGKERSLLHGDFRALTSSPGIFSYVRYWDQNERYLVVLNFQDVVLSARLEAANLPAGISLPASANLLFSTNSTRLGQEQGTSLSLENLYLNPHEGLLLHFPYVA"}, "source": "patent US20050137215A1", "about": "“[C]-fused bicyclic proline derivatives and their use for treating arthritic conditions” (priority 2003, published 2005)", "key": {"[1]": {"biological_target": "leucine transport system (Cricetulus griseus, UniProt G3GRU9)", "assay": "Leucine transport system binding assay (LTSBA), [3H]leucine uptake in CHO K1 cells", "format": "cell-based", "conditions": "read-out: LTS IC50, leucine transport system binding, inhibition of saturable [3H]leucine uptake, tested form: HCl", "experimental": "Leucine Transport System Binding Assay (“LTSBA”) The sodium-containing buffer for transport assay was phosphate buffered saline (“PBS”) consisting of 137 mM NaCl, 2.7 mM KCl, 10.6 mM Na2HPO4, and 1.5 mM KH2PO4. The sodium-free buffer had equimolar amounts of choline chloride and choline phosphate in place of NaCl and […], respectively. This buffer is referred to as PBC. Prior to use, both PBS and PBC buffers (pH 7.4) were supplemented with 5.6 mM D-glucose, 0.49 mM MgCl2, and 0.9 mM CaCl2 (GMC). For cultured monolayer cells (in general, CHO K1 cells), the cluster tray transport assay was used as described previously (Su et al, J. Neurochem., 1995; 64:2125-2131, and references therein). […] The initial transport rates were determined by measuring uptake of tracer [3H] […] Secondary analysis of the initial velocity kinetic curves were determined by non linear regression analysis, using the equation: log V=log {[Vmax.S/(Km+S)]+P.[S]} where V, S, Vmax, and Km have their conventional meanings, and P represents the first order rate constant describing the nonsaturable uptake. An IC50 was determined as percentage inhibition of saturable leucine uptake. […] They were calculated by subtracting the corresponding substrate uptake rates in the presence of 10 mM excess unlabeled leucine from the total uptake rates. […] The efflux was calculated as percentage of the intracellular labeled substrate at zero time. […]"}, "[2]": {"tested_on": "Monosodium Iodoacetate-Induced Osteoarthritis in Rat Model of Joint Cartilage Damage", "assay": "Monosodium iodoacetate-induced osteoarthritis in rat (MIA Rat), loss of hind limb joint function", "conditions": "male Wistar rats, MIA 1 mg/joint, 10 mg/kg/day subcutaneously via osmotic pump, tested form: HCl", "source_text": "Monosodium Iodoacetate-Induced Osteoarthritis in Rat Model of Joint Cartilage Damage (“MIA Rat”):\nOne end result of the induction of osteoarthritis in this model, as determined by histologic analysis, is the development of an osteoarthritic condition within the affected joint, as characterized by the loss of Toluidine blue staining and formation of osteophytes. […]\nGenerally, In the MIA Rat model on Day 0, the hind-paw weight differential between the right arthritic joint and the left healthy joint of male Wistar rats (150 g) are determined with an incapacitance tester, model 2KG (Linton Instrumentation, Norfolk, United Kingdom). […]\nAdministration of an invention compound in this model is optionally by oral administration or by intravenous administration via an osmotic pump. After 7 and 14 days for a two week study, or 7, 14, and 28 days for a four week study, the hind-paw weight distribution is again determined. […] Percent inhibition of a change in hind paw joint function is calculated as the percent change in hind-paw weight distribution for treated animals versus control animals. […]"}}, "data": [{"smiles": "O=C(O)C1NCC2CC(O)C(O)CC21", "note": "(single isomer, unassigned) [N3]", "values": [{"measurement": "IC50", "setting": "[1]", "value": "> 8.3", "unit": "mM"}, {"measurement": "% I @ 10 mg/kg/day (%) (± SEM): inhibition of loss of hind limb joint function in MIA at Day 14", "setting": "[2]", "value": 27, "unit": "%"}]}]}
